Assay results reported in patent EP4825852A1, “COMPOUND HAVING PROTEIN TYROSINE KINASE BTK-DEGRADING ACTIVITY, AND PREPARATION METHOD THEREFOR AND USE THEREOF” (dated 2026).
pIC50: −log10 of the molar value.

Sequences of proteins named here, by UniProt entry; tags and fusion partners are left off.
UniProt P35991, whole entry: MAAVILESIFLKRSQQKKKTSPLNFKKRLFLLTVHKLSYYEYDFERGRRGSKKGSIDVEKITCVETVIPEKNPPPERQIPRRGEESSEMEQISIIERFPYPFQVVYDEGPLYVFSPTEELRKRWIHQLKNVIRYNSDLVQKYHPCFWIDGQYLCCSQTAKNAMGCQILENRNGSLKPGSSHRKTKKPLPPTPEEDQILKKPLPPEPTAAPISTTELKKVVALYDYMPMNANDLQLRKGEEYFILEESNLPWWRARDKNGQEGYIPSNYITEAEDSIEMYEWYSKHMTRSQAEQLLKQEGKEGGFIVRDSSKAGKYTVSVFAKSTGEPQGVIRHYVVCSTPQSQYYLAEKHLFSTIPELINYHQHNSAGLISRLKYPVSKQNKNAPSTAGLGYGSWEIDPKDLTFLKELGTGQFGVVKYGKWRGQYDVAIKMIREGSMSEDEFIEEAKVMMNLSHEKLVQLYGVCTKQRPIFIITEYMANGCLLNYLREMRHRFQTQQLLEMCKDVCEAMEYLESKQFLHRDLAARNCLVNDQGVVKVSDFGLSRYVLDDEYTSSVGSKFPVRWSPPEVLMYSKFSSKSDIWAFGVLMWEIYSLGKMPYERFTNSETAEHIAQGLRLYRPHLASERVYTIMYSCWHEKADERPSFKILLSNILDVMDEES

Legend:
Mino cells = assay: Mino cell proliferation assay (CTG); details: read-out: Mino IC50, 96 h incubation, cell growth inhibition
Description: (§1) Mino or TMD8 cells were cultured in RPMI 1640 medium containing 10% fetal bovine serum (Gibco). After reaching the logarithmic growth phase, cells were collected, counted and seeded into 96-well plates at 2000 cells/well. Following overnight incubation, compounds were added to reach final concentrations of 1 µM, 200 nM, 40 nM, 8 nM, 1.6 nM, 0.32 nM, 0.064 nM, 0.0128 nM, 0.00256 nM and 0.00051 nM, with a final DMSO concentration of 0.2%. 0.2% DMSO and blank RPMI 1640 medium (without cells and compounds) were set as vehicle control and negative control, respectively. Two replicates were set for each concentration. After the test compound was mixed, the 96-well plate was placed in a 37°C, 5% CO2 incubator and cultured (Mino cells were incubated for 96 h, REC-1 and TMD8 cells were incubated for 72 h). After incubation, the plates were placed at room temperature, 50 µL of CTG reagent was added, and the plates were shaken for 2 min and incubated at room temperature for 10 min. The luminescence signal (RLU) in each well was measured using a microplate reader to calculate the cell growth inhibition rate, followed by fitting a dose-response curve to determine the half-inhibitory concentration (IC50). Table 1: IC50 of the exemplary compounds against TMD8/Mino cells

TMD8 cells = assay: TMD8 cell proliferation assay (CTG); details: read-out: TMD8 IC50, 72 h incubation, cell growth inhibition
Description: as §1

BTK = BTK (Mus musculus, UniProt P35991); assay: Single oral administration test in mice, BTK protein level by Western blotting; details: single oral dose of 10 mpk, relative to vehicle group; for 24h spleen BTK Deg%: spleen at 24 h; for 6h whole blood BTK Deg%: whole blood at 6 h; for 24h whole blood BTK Deg%: whole blood at 24 h
Description: Mice were administered a single oral dose of 10 mpk. On the day of administration, the compound was dissolved in a mixture (10% DMSO, 40% PEG 400, 5% Tween 80 and 45% saline) and vortexed until a clear, transparent solution was obtained. Following oral gavage, whole blood samples were collected at 6 h and 24 h, and spleen samples were collected at 24 h. BTK protein levels were analyzed by Western blotting.
Whole blood samples were pretreated using a whole blood protein extraction kit. According to the manufacturer's instructions, 100× PMSF was added to the protein extract and vortexed thoroughly. An equal volume of the protein extract was combined with the whole blood sample, mixed well, and shaken on ice for 20 min. A tube was inserted into the centrifuge column, and the extract solution was pipetted into the column. Centrifugation was performed at 4 °C and 10,000 × g for 3-5 min. The eluate from the collection tube was collected as total whole blood protein.
Mouse spleen samples were minced, and 150 µL of RIPA lysis buffer containing PMSF was added. The tissues were homogenized on ice using a tissue homogenizer and incubated on ice for an additional 10-20 min for lysis. The samples were centrifuged at 4 °C and 13,000 × g for 30 min. The supernatant was transferred to a fresh centrifuge tube to obtain total spleen protein.
Protein concentration was determined by the BCA assay. After heat denaturation, proteins were separated by sodium dodecyl sulfate-polyacrylamide gel electrophoresis and transferred onto PVDF membranes. The membranes were incubated with blocking buffer for 1 h at room temperature, followed by overnight incubation with primary antibodies against BTK and GAPDH (both diluted 1:1000) at 4°C. After three washes with TBST, HRP-conjugated rabbit anti-goat secondary antibody (diluted 1:10,000) was applied and incubated for 1 h at room temperature. The membranes were then washed three times with TBST. ECL chemiluminescent solution was added, and images were acquired using a gel imaging system. The grayscale values of target protein bands were quantified with Image-Pro Plus 6.0 software. Relative BTK protein levels were compared with those of the vehicle group, and the degradation rate (Deg%) was calculated. Table 3 BTK degradation rate in whole blood/spleen of mice after single administration of exemplary compounds of the present application

Baf3-BTK-T474I cells = assay: BTK mutant cell inhibitory activity assay (Cell Titer-Glo); details: read-out: Baf3-BTK-T474I IC50, 72 h, cell growth inhibition
Description: (§2) REC-1-BTK-L528W or Baf3-BTK-T474I cells in the logarithmic growth phase were seeded into 96-well plates at a density of 3 × 10^3 cells per well. Compound solutions at various concentrations (starting from 2 µM with five-fold serial dilution) were added. The plates were gently mixed and incubated in a cell culture incubator for 72 h. Subsequently, 50 µL Cell Titer-Glo reagent was added. The plates were shaken for 2 min and incubated at room temperature for 10 min. The luminescence signal (RLU) in each well was measured using a microplate reader to calculate the cell growth inhibition rate, followed by fitting a dose-response curve to determine the half-inhibitory concentration (IC50). Table 2: IC50 of the exemplary compounds against BTK-L528W/T474I mutant cells

REC-1-BTK-L528W cells = assay: as above; details: read-out: REC-1-BTK-L528W IC50, 72 h, cell growth inhibition
Description: as §2

MCL patients = details: cited from earlier work

SMILES	pIC50 (Mino cells)	pIC50 (TMD8 cells)	6h whole blood BTK Deg% (BTK)	24h whole blood BTK Deg% (BTK)	other results
CN1CCN([C@@H]2CCCN(c3cnc(C(N)=O)c(Nc4ccc(C5CCN(C6CN(c7cc(F)c(C8CCC(=O)NC8=O)c(F)c7)C6)CC5)cc4)n3)C2)C1=O (stereo partly drawn)	9.24	8.51			
CN(c1cnc(C(N)=O)c(Nc2ccc(C3CCN(CC4CN(c5cc(F)c(C6CCC(=O)NC6=O)c(F)c5)C4)CC3)cc2)n1)[C@@H]1CCCN(S(C)(=O)=O)C1 (stereo partly drawn)		9.52			
NC(=O)c1ncc(N2CCC[C@@H](N3CCN(C4CC4)C3=O)C2)nc1Nc1ccc(C2CCN(CC3CN(c4cc(F)c([C@@H]5CCC(=O)NC5=O)c(F)c4)C3)CC2)cc1 (single isomer, unassigned)		8.82			
NC(=O)c1ncc(N2CCC[C@@H](N3CCOC3=O)C2)nc1Nc1ccc(C2CCN(CC3CN(c4cc(F)c(C5CCC(=O)NC5=O)c(F)c4)C3)CC2)cc1 (single isomer, unassigned) [Example 23]		8.47			
CN1CCN([C@@H]2CCCN(c3cnc(C(N)=O)c(Nc4ccc(C5CCN(CC6CN(c7cc(F)c(C8CCC(=O)NC8=O)c(F)c7)C6)CC5)cc4)n3)C2)C1=O (single isomer, unassigned) [Example 21]		8.33			
NC(=O)c1ncc(N2CCC[C@@H](N3CCOC3=O)C2)nc1Nc1ccc(C2CCN(CC3CN(c4cc(F)c(C5CCC(=O)NC5=O)c(F)c4)C3)CC2)cc1 (single isomer, unassigned) [Example 22]		9.52	B (60-80%)	A (>80%)	24h spleen BTK Deg% (BTK): B (60-80%); pIC50 (Baf3-BTK-T474I cells): 8.94; pIC50 (REC-1-BTK-L528W cells): 9.00
CN1CCN([C@@H]2CCCN(c3cnc(C(N)=O)c(Nc4ccc(C5CCN(CC6CCN(c7ccc(C(=O)N[C@H]8CCC(=O)NC8=O)nc7)CC6)CC5)cc4)n3)C2)C1=S	8.59	8.01			
CN(c1cnc(C(N)=O)c(Nc2ccc(N3CCC(N4CCC(n5ncc6c(N7CCC(=O)NC7=O)cccc65)CC4)CC3)cc2)n1)[C@@H]1CCCN(C(=O)C2CC2)C1		9.52	C (<60%)	B (60-80%)	24h spleen BTK Deg% (BTK): C (<60%); pIC50 (Baf3-BTK-T474I cells): 8.50
COC(=O)N1CCC[C@@H](Nc2cnc(C(N)=O)c(Nc3ccc(N4CCC(N5CCC(n6ncc7c(N8CCC(=O)NC8=O)cccc76)CC5)CC4)cc3)n2)C1		9.40			
CN1CCN([C@@H]2CCCN(c3cnc(C(N)=O)c(Nc4ccc(C5CCN(CC6CN(c7cc(F)c(C8CCC(=O)NC8=O)c(F)c7)C6)CC5)cc4)n3)C2)C1=O (stereo partly drawn)	8.11	8.85	A (>80%)	A (>80%)	
NC(=O)c1ncc(N[C@@H]2CCCN(C(=O)C3CC3)C2)nc1Nc1ccc(C2CCN(CC3CN(c4cc(F)c(C5CCC(=O)NC5=O)c(F)c4)C3)CC2)cc1 (stereo partly drawn)	8.81	8.89			
COC(=O)N1CCC[C@@H](N(C)c2cnc(C(N)=O)c(Nc3ccc(N4CCC(N5CCC(n6ncc7c(N8CCC(=O)NC8=O)cccc76)CC5)CC4)cc3)n2)C1		9.52	C (<60%)	C (<60%)	24h spleen BTK Deg% (BTK): B (60-80%); pIC50 (Baf3-BTK-T474I cells): 8.38; pIC50 (REC-1-BTK-L528W cells): 8.27
NC(=O)c1ncc(N[C@@H]2CCCN(C(=O)C3CC3)C2)nc1Nc1ccc(N2CCC(N3CCC(n4ncc5c(N6CCC(=O)NC6=O)cccc54)CC3)CC2)cc1		9.40	B (60-80%)	A (>80%)	pIC50 (REC-1-BTK-L528W cells): 7.54
CN1CCN([C@@H]2CCCN(c3cnc(C(N)=O)c(Nc4ccc(C5CCN(C(=O)CN6Cc7cc8c(cc7C6)C(=O)N(C6CCC(=O)NC6=O)C8=O)CC5)cc4)n3)C2)C1=O (stereo partly drawn)	8.00	8.05			
Cc1c(NC(=O)c2ccc(C(C)(C)O)cc2F)cc(F)cc1-c1cc(Nc2ccc(N3CCN(CC4CN(c5cc(F)c(C6CCC(=O)NC6=O)c(F)c5)C4)C[C@@H]3C)cn2)c(=O)n(C)c1 (stereo partly drawn)		8.41			
CN1CCN([C@@H]2CCCN(c3cnc(C(N)=O)c(Nc4ccc(C5CCN(C(=O)CN6CCC(n7ccc8c(N9CCC(=O)NC9=O)cccc87)CC6)CC5)cc4)n3)C2)C1=O	8.51	9.10			
CN1CCN([C@@H]2CCCN(c3cnc(C(N)=O)c(Nc4ccc(N5CCC(CN6Cc7cc8c(cc7C6)C(=O)N(C6CCC(=O)NC6=O)C8=O)CC5)cc4)n3)C2)C1=O (stereo partly drawn)		8.08			
CN1CCN([C@@H]2CCCN(c3cnc(C(N)=O)c(Nc4ccc(C5CCN(CC6CN(c7cc(F)c(C8CCC(=O)NC8=O)c(F)c7)C6)CC5)cc4)n3)C2)C1=O (single isomer, unassigned) [Example 20]		9.40			pIC50 (Baf3-BTK-T474I cells): 8.76; pIC50 (REC-1-BTK-L528W cells): 9.46
Cc1c(NC(=O)c2ccc(C(C)(C)O)cc2F)cc(F)cc1-n1cc(Nc2ccc(N3CCN(CC4CN(c5cc(F)c(C6CCC(=O)NC6=O)c(F)c5)C4)C[C@@H]3C)cn2)c(C(N)=O)n1 (stereo partly drawn)	7.90				
CN(c1cnc(C(N)=O)c(Nc2ccc(C3CCN(CC4CN(c5cc(F)c(C6CCC(=O)NC6=O)c(F)c5)C4)CC3)cc2)n1)[C@@H]1CCCN(C(=O)C2CC2)C1 (stereo partly drawn)	8.71	8.89	A (>80%)	A (>80%)	
COc1ccc(F)cc1C(=O)NCc1ccc(-c2nn([C@@H](C)C(F)(F)F)c(N)c2C(N)=O)cc1					complete response (CR) rate (MCL patients): 25%; objective response rate (ORR) (MCL patients): 51%; partial response (PR) rate (MCL patients): 26%
CN1CCN([C@@H]2CCCN(c3cnc(C(N)=O)c(Nc4ccc(C5CCN(CC6CCN(c7ccc(C(=O)N[C@H]8CCC(=O)NC8=O)nc7)CC6)CC5)cc4)n3)C2)C1=O	7.94	8.66	B (60-80%)	B (60-80%)	24h spleen BTK Deg% (BTK): B (60-80%); pIC50 (Baf3-BTK-T474I cells): 7.90; pIC50 (REC-1-BTK-L528W cells): 7.54
